Assay results reported in patent publication US20120070442A1, “METHODS AND COMPOSITIONS FOR TREATING CANCER” (The Regents of the University of Colorado, a body corporate, priority 2007, published 2012).
Where two headings read alike, the source gives them in different places. Marks after values point to notes of the source that are not given here. Blank lines part the entries; values can stand above or below the compound they belong to.

Legend:
miR-128b = settings: 72 hours
EGFR mRNA = format: cell-based, human; settings: 72 hours
[1] = test system: NSCLC cell lines A549, H358, H157, H3255, H520, Colo699; assay: MTT growth inhibition of NSCLC cells; format: cell-based, human; settings: cetuximab alone, tested NSCLC cell lines, 72 hour incubation
Experimental: Gefitinib was provided by Astra-Zeneca Pharmaceuticals and Cetuximab was provided by ImClone Systems, Inc. (New York, N.Y.). […] Cetuximab stock solution was supplied at a concentration of 2 mg/mL and formulated in a preservative-free solution containing 8.48 mg/mL sodium chloride, 1.88 mg/mL sodium phosphate dibasic heptahydrate, 0.41 mg/mL sodium phosphate monobasic monohydrate, and water. Prior to use, drug stocks were diluted in fresh media. […] Cells were seeded in 96-well flat bottomed plates (Corning Inc., Corning, N.Y.) in 50 μL RPMI media supplemented with 10% heat-inactivated fetal bovine serum followed by transfection with miR-128b mimic or inhibitor (HiPerfect Transfection Reagent, Qiagen, Valencia, Calif.) at least 6 hours after seeding to bring total volume to 100 μL. […] An absorbance at 490 nm of 0.1-0.4 was sought. The optimum numbers of cells seeded to achieve this range were determined to be 5,000 cells for A549, H358, and H157 cell lines, and 5,000 to 7,500 cells for H3255, H520, and Colo699 cell lines. […] Tetrazolium salt was added at a concentration of 0.4 mg/mL to each well following the 72 hour incubation. The plates were then incubated with the salt for 4 hours at 37° C. […] The absorbency of each well was measured using an automated plate reader (Molecular Devices, Sunnyvale, Calif.).

Compound: COc1cc2ncnc(Nc3ccc(F)c(Cl)c3)c2cc1OCCCN1CCOCC1 [Gefitinib, N-(3-chloro-4-fluoro-phenyl)-7-methoxy-6-(3-morpholin-4-ylpropoxy)quinazolin-4-amine]
miR-128b qRT PCR relative to control (1.0) (miR-128b; A549, gefitinib <IC50): 0.0 | miR-128b qRT PCR relative to control (1.0) (miR-128b; A549, gefitinib >IC50): 6.4 | miR-128b qRT PCR relative to control (1.0) (miR-128b; Colo699, gefitinib <IC50): 0.0 | miR-128b qRT PCR relative to control (1.0) (miR-128b; Colo699, gefitinib >IC50): 0.0 | miR-128b qRT PCR relative to control (1.0) (miR-128b; H157, gefitinib <IC50): 0.1 | miR-128b qRT PCR relative to control (1.0) (miR-128b; H157, gefitinib >IC50): 2.5 | miR-128b qRT PCR relative to control (1.0) (miR-128b; H358, gefitinib <IC50): 1.5 | miR-128b qRT PCR relative to control (1.0) (miR-128b; H358, gefitinib >IC50): 0.5 | miR-128b qRT PCR relative to control (1.0) (miR-128b; H520, gefitinib <IC50): 25.1 | miR-128b qRT PCR relative to control (1.0) (miR-128b; H520, gefitinib >IC50): 157.0 | miR-128b qRT PCR relative to control (1.0) (miR-128b; H3255, gefitinib <IC50): 2.7 | miR-128b qRT PCR relative to control (1.0) (miR-128b; H3255, gefitinib >IC50): 30.9 | EGFR qRT PCR relative to control (1.0) (EGFR mRNA; A549, gefitinib <IC50): 1.3^‡ | EGFR qRT PCR relative to control (1.0) (EGFR mRNA; A549, gefitinib >IC50): 0.7^γ | EGFR qRT PCR relative to control (1.0) (EGFR mRNA; Colo699, gefitinib <IC50): 0.9 | EGFR qRT PCR relative to control (1.0) (EGFR mRNA; Colo699, gefitinib >IC50): 1.2 | EGFR qRT PCR relative to control (1.0) (EGFR mRNA; H157, gefitinib <IC50): 0.5 | EGFR qRT PCR relative to control (1.0) (EGFR mRNA; H157, gefitinib >IC50): 0.5 | EGFR qRT PCR relative to control (1.0) (EGFR mRNA; H358, gefitinib <IC50): 1.3 | EGFR qRT PCR relative to control (1.0) (EGFR mRNA; H358, gefitinib >IC50): 1.6 | EGFR qRT PCR relative to control (1.0) (EGFR mRNA; H520, gefitinib <IC50): 1.6 | EGFR qRT PCR relative to control (1.0) (EGFR mRNA; H520, gefitinib >IC50): 3.9 | EGFR qRT PCR relative to control (1.0) (EGFR mRNA; H3255, gefitinib <IC50): 1.1 | EGFR qRT PCR relative to control (1.0) (EGFR mRNA; H3255, gefitinib >IC50): 0.8

IC50 [1]: > 100 nM
Compound: cetuximab: Cetuximab provided by ImClone Systems, Inc.; stock solution 2 mg/mL
